Assay results reported in patent US20090060984A1, “ANIONIC SURFACTANTS LETHAL TO GRAM-POSITIVE BACTERIA” (priority 2007, published 2009).

What was measured:
Micrococcus luteus = test: Growth on surfactant/TSA agar plates; format: cell-based; details: TSA with 0.5% sodium bis[2-ethylhexyl]sulfosuccinate, 37° C., 24 hours
Bacillus subtilis = test: Growth on surfactant/TSA agar plates; format: cell-based; details: TSA with 0.5% sodium bis[2-ethylhexyl]sulfosuccinate, 37° C., 24 hours

Measured: No Growth(−)/Full Growth(+), columns 1*, 2*

CCCCC(CC)COC(=O)CC(C(=O)OCC(CC)CCCC)S(=O)(=O)[O-].[Na+] (stereo not drawn) [NaAOT, Sodium bis(2-ethylhexyl)sulfosuccinate]
−: Micrococcus luteus | Bacillus subtilis; Bacillus subtilis (first listing) | Bacillus subtilis; Bacillus subtilis (second listing)
